Data on one substance can be found in US20070269422A1.

For orientation: Kd means a measure of binding affinity in units of concentration.

This assay addresses baboon albumin (baboon). Description: SPR (BIAcore). On the technique in general: In SPR one partner is held on a chip, and binding of the other changes the refractive index at the surface.

As to “humanized anti-human serum albumin Nanobody ALB-8 (VHH)”, the equilibrium dissociation constant (Kd) is 36 nM.
